The target in one experiment is T1, rat PTH2 receptor (Rattus norvegicus, UniProt P70555).
T1 construct: expressed in transfected cells; host or cells: COS-7 (transient)
Put plainly: cAMP accumulation in COS-7 cells transiently expressing the rat PTH2 receptor. The class given is cell-based. Particulars: activation of adenylyl cyclase, figures in brackets. (In general: Cyclic AMP is a second messenger, typically raised through Gs and lowered through Gi signalling.)

Amino acid sequences for entries named in this document (tags omitted). Residues count along the entry.
UniProt P70555, 25-546: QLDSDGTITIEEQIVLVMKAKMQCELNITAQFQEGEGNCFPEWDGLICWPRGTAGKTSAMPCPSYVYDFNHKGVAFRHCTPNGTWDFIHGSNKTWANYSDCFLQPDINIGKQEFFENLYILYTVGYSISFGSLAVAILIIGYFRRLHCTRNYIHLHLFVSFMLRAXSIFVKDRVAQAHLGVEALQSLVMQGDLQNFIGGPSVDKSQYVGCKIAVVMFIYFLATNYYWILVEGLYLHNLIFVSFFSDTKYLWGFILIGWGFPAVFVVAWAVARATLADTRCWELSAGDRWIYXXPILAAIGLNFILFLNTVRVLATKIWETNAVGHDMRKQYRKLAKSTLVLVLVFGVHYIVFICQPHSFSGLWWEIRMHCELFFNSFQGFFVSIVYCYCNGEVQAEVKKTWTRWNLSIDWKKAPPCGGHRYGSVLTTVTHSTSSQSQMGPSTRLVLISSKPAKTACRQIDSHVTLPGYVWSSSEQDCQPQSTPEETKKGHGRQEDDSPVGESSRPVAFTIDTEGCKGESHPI
UniProt P49190, 25-550: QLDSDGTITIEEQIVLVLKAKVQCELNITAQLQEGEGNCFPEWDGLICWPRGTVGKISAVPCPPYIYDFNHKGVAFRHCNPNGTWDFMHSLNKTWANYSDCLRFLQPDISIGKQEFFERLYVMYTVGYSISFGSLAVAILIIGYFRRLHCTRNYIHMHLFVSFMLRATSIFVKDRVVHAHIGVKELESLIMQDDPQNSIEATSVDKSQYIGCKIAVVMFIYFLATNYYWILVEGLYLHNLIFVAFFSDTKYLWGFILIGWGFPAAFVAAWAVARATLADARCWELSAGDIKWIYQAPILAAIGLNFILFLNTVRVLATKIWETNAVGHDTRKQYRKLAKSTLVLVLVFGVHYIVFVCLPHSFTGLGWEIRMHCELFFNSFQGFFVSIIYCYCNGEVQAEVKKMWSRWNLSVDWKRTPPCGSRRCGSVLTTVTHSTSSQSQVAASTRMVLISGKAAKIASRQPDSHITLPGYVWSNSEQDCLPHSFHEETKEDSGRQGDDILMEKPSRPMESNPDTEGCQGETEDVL

The next experiment has as its target PTH2 receptor (Homo sapiens, UniProt P49190). Put plainly: cAMP accumulation in COS-7 cells transiently expressing the human PTH2 receptor. The format is cell-based. The arrangement: expressed in transfected cells; host or cells: COS-7 (transient). To be noted: activation of adenylyl cyclase.

pEC50: −log10 of the molar value.

Broadly, the pEC50 is the EC50 on a negative log10 scale, so that one unit is a factor of ten. A lower pEC50 goes with a large EC50. hPTH(1-34) had a pEC50 at rat PTH2 receptor of 6.85. In addition, the “−logEC50” value on PTH2 receptor (mean ± s.e.m. of three or four experiments) was found to be 8.95 ± 0.09.

At PTH2 receptor (figures in brackets), hPTH(1-84) showed a pEC50 of 8.26.

Values taken from US7122624B2, “Parathyroid hormone receptor ligands” (The United States of America as represented by the …, priority 1999, dated 2006).
